Reference: PMC9939304 (Acta Pharmaceutica Sinica. B, 2022)
Each block holds one molecule with its values, some of them ahead of it.

Tests used:
[1] = biological target: T1, FXR (Homo sapiens, UniProt Q96RI1); type: cell-based; conditions: HK-2 cells
T1 sequence (Q96RI1 1-486): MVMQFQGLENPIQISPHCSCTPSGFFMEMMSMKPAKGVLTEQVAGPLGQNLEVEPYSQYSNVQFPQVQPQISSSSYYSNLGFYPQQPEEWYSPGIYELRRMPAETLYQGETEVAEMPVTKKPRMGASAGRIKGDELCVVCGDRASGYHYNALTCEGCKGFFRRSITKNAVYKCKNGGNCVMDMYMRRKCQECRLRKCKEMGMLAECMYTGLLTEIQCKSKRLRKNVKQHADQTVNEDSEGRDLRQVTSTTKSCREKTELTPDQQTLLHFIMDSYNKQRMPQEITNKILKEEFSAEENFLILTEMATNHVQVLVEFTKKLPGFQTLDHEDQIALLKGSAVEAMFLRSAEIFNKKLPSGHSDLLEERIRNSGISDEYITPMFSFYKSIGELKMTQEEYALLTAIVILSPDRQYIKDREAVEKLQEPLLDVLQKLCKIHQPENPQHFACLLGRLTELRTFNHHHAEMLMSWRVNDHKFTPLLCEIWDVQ

[2] = tested on: OCT2 protein; assay: OCT2 protein expression in Caco-2 cells; type: cell-based, human; conditions: 48 h
[3] = In vivo tissue uptake clearance; conditions: iv metformin 10 mg/kg, within 3 min; liver; BDL rats

- Expressions of SHP and FGF19 mRNA [1]: significantly upregulate
SMILES: CC(C)c1onc(-c2c(Cl)cccc2Cl)c1COc1ccc(/C=C/c2cccc(C(=O)O)c2)c(Cl)c1 [GW4064]

SMILES: C=CC1=C(C)/C(=C/c2[nH]c(Cc3[nH]c(/C=C4\NC(=O)C(C)=C4C=C)c(C)c3CCC(=O)O)c(CCC(=O)O)c2C)NC1=O [bilirubin]
- Concentration-dependent effect on expressions of OCT2 ([2]; CDCA 25, 50, 100 μmol/L, bilirubin 10, 25, 50 μmol/L): concentration-dependently increase
- Expressions of OCT2 protein by FXR agonists ([2]; CDCA 100, bilirubin 50, GW4064 1 μmol/L): induce expressions of OCT2 protein

- In vivo hepatic uptake of metformin, BDL vs Sham [3]: little affects
SMILES: CN(C)C(=N)N=C(N)N [metformin]
